Results on one compound are retold here after article PMC10508484, “Development and application of a PBPK modeling strategy to support antimalarial drug development” (CPT: Pharmacometrics & Systems Pharmacology, 2023).

Sequences of proteins named here, by UniProt entry; tags and fusion partners are left off.
UniProt P10635, whole entry: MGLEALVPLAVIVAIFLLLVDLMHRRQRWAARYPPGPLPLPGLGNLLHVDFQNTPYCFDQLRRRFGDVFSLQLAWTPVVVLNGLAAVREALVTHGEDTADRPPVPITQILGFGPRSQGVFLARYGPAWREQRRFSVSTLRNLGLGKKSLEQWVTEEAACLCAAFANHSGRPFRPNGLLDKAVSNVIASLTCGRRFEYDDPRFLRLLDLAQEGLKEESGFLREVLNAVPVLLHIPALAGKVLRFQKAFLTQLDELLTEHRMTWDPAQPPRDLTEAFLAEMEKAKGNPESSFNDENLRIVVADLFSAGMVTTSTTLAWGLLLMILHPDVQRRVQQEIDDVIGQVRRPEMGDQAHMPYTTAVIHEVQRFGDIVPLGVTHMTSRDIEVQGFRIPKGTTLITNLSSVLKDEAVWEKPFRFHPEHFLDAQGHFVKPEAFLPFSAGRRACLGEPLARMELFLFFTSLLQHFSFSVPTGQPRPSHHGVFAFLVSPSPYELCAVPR

Data set [1] deals with MAO. As to conditions: fraction metabolised used in the PBPK model.
Data set [2] addresses CYP2D6 (Homo sapiens, UniProt P10635). Description: Metabolism by CYP2D6 (CLint, fm).

Consider `COc1cc(NC(C)CCCN)c2ncccc2c1` (stereo not drawn) [Primaquine, primaquine], for which the fmMAO in data set [1] came to 89%. Moreover, the fmCYP2D6 in data set [2] (fraction metabolised used in the PBPK model) worked out at 11%. Besides, the “CLint CYP2D6” value in data set [2] (retrograde calculations) is 0.496 µL/min/pmol.
